## Measured affinities in a library of Ab-14 light chain variants

All variants were tested on one target, the spike HR2 peptide PDVDLGDISGINAS (SARS-CoV-2).

Parent scFv Ab-14: VH joined to VL by a 15-residue (Gly4Ser)3 linker. Changes lie in the light chain CDRs alone.
VH: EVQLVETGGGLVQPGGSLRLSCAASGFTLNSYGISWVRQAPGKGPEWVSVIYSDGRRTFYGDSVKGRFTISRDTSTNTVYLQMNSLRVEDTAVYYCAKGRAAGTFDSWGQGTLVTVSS
VL: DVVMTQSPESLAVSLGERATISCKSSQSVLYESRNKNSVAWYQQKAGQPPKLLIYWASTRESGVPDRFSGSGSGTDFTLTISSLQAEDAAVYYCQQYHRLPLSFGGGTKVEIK

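The starting antibody came from a phage panning campaign against this peptide. The library (AAYL50) carries one to three amino acid substitutions per variant, with no insertions or deletions. AlphaSeq pools MATa yeast showing the antibodies with MATalpha yeast showing the peptide. Pairs that bind mate more often; barcode pairs of the diploids are counted by sequencing. Each replicate has its own calibration line, from reference interactions of the BCL2 family. There are three technical replicates.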

Variants are written as CDR1, CDR2 and CDR3 of the light chain (limits as in the source). Parent: KSSQSVLYESRNKNSVA, WASTRES, QQYHRLPLS. This list gathers variants with a substitution at P101 (VL, numbered from residue 1). Values are apparent Kd, the geometric mean of the replicates that gave a signal; lower means stronger binding. "nd" marks a missing value. The strain was present, yet no cells mated with the target were sequenced in any replicate, which points to weak or no binding. Parent in this assay: reference entry 4.4 nM, copy in this library 48 nM. Three control strains display no target. For library AAYL50, 18% of the pairings with them gave a signal, with a median of 15 µM and one signal in twenty below 970 nM, so weak values seen in few replicates may be background. The control count says in how many pairings with the empty strains this scFv gave a signal.

* KSSQSVLYESRNKNSVA | WASFRES | KQYHRLKLS -> 590 nM (3 of 3 replicates; controls 1 of 9)
* KSSQSVLYESRRKNSVA | WASTRES | YQYHRLHLS -> 12 nM (3 of 3 replicates; controls 0 of 9)
* KSSQSVLYESRNKNSVA | EASTRES | QQYHRTELS -> 4.7 nM (3 of 3 replicates; controls 2 of 9)
* KSSQSVLYESRNKNHVA | WASTRES | QQYGRLNLS -> 68 nM (3 of 3 replicates; controls 0 of 9)
* FSSQSVLYESRNKNSVQ | WASTRES | QQYHRLELS -> nd (0 of 3 replicates; controls 0 of 9)
* KSSQNVLYESRNKNSVA | WASPRES | QQYHRLVLS -> nd (0 of 3 replicates; controls 1 of 9)
* KSSQSVLYESRNKNSVA | WASTRES | LQYIRLELS -> nd (0 of 3 replicates; controls 0 of 9)
* KSSQSVLYESRNKNSVA | WASTRES | QFYHRLWLS -> nd (0 of 3 replicates; controls 1 of 9)
* KSSQSQLYESRNKNSVA | WASTRES | QQYHRLALS -> 56 nM (3 of 3 replicates; controls 1 of 9)
* KSSQSVLYESRNKNSVA | WASTRES | QWYHRLILS -> 3.2 µM (1 of 3 replicates; controls 2 of 9)
* KISQSVLYESRNKNSVA | WASTREF | QQYHRLILS -> nd (0 of 3 replicates; controls 1 of 9)
* KSSQSVLYESRNKNSKA | WASTRES | QQYHRLYLS -> 73 µM (2 of 3 replicates; controls 6 of 9)
* QSSQSVLYESRNKNSVA | WASTRES | QQYHGLSLS -> 8.2 nM (3 of 3 replicates; controls 0 of 9)
* KSSQSVLYFSRNKNSVA | WAKTRES | QQYHRLLLS -> nd (0 of 3 replicates; controls 0 of 9)
* KSSQSVLYESRNKNSGA | WASTRES | QQYHRLYLS -> nd (0 of 3 replicates; controls 0 of 9)
* KSSQSVLLESRRKNSVA | WASTRES | QQYHRLFLS -> 14 nM (3 of 3 replicates; controls 6 of 9)
* KSSQSVFYESRNKNSVA | WASTRSS | QQYHRLILS -> 28 nM (3 of 3 replicates; controls 0 of 9)
* KSSQSVLYESRNKNSHA | WASTRES | QQYHRSKLS -> nd (0 of 3 replicates; controls 0 of 9)
* KSLQSVLYESRNKNIVA | WASTRES | QQYHRLNLS -> 1.0 µM (1 of 3 replicates; controls 4 of 9)
* KSSQSDLYESRNKNSVA | WASTRSS | QQYHRLMLS -> 6.2 µM (1 of 3 replicates; controls 1 of 9)
* KSSQSVLYESRNKNDVA | WASTRES | QEYHRLWLS -> 3.0 µM (1 of 3 replicates; controls 1 of 9)
* KSSQSVLYESRNKNSYA | MASTRES | QQYHRLILS -> 58 µM (2 of 3 replicates; controls 7 of 9)
* KSSQSVLYESRNKNSVA | WASTYES | QQYHRLMNS -> nd (0 of 3 replicates; controls 3 of 9)
* KSSQSVLYESRKKNSKA | WASTRES | QQYHRLLLS -> 240 µM (3 of 3 replicates; controls 3 of 9)
* KSSQSVLYEPRNKNSVA | WASTRES | QQTHRLWLS -> 110 nM (3 of 3 replicates; controls 4 of 9)
* KSSQSVLYESRNKNSVA | WASTREC | QQYHKLELS -> nd (0 of 3 replicates; controls 0 of 9)
* KSSRSVLYESRNKNSVA | WASTRES | QQYHRLMAS -> 210 nM (3 of 3 replicates; controls 4 of 9)
* NSSQSILYESRNKNSVA | WASTRES | QQYHRLKLS -> 96 nM (3 of 3 replicates; controls 2 of 9)
* KSSQSVLYESRNKNSVA | WASQRES | QQYHRDSLS -> nd (0 of 3 replicates; controls 3 of 9)
* KSSQSVLYESRNKNSVA | WASTRES | QQYHRRTLS -> nd (0 of 3 replicates; controls 0 of 9)
* KSSQSGLYESRNKNSVC | WASTRES | QQYHRLGLS -> nd (0 of 3 replicates; controls 0 of 9)
* KSSQSVLYESRNRNSVA | WASTRES | RQYHRLRLS -> 270 µM (1 of 3 replicates; controls 3 of 9)
* KSSESVLYESRNKNSVA | AASTRES | QQYHRLVLS -> 620 pM (3 of 3 replicates; controls 1 of 9)
* KSSQSVLYESRNKNSVK | WAETRES | QQYHRLKLS -> 140 µM (1 of 3 replicates; controls 1 of 9)
* KSSQSVLYESRNKNSVA | WAYTRES | QQYHRLNMS -> 4.0 µM (2 of 3 replicates; controls 1 of 9)
* KSSQSVLYESRNKMSVA | WASYRES | QQYHRLNLS -> 75 nM (3 of 3 replicates; controls 1 of 9)
* KSNQSVLYESRNKNSTA | WASTRES | QQYHRLILS -> 880 nM (1 of 3 replicates; controls 0 of 9)
* KSSQSVLWESRNKNSVA | WASTRES | QQYHRHALS -> nd (0 of 3 replicates; controls 0 of 9)
* KSSQSRLYESRNKNSVA | WASTRES | QQYHMLYLS -> 7.5 µM (1 of 3 replicates; controls 2 of 9)
* KSSQSVLYESRVKNSVA | PASTRES | QQYHRLKLS -> nd (0 of 3 replicates; controls 0 of 9)
* KSSQSVLYESRNKNSCA | WASTRES | QQCHRLCLS -> nd (0 of 3 replicates; controls 0 of 9)
* KSSQSVLYESRNKNSTA | WACTRES | QQYHRLTLS -> nd (0 of 3 replicates; controls 2 of 9)
* KSSQSVLYESRNKNSWA | WASTRES | QQYNRLGLS -> 22 µM (2 of 3 replicates; controls 6 of 9)
* KSSQSVMYESRNKNSVA | WASDRES | QQYHRLNLS -> nd (0 of 3 replicates; controls 0 of 9)

Extract of 3 entries:

{"CDR-L1": "KSSQSVLYESRNKNSGA", "CDR-L2": "WASTRES", "CDR-L3": "QQYHRLYLS", "Kd (apparent)": "nd", "detected": "0 of 3", "empty controls": "0 of 9"}
{"CDR-L1": "KSSQSGLYESRNKNSVC", "CDR-L2": "WASTRES", "CDR-L3": "QQYHRLGLS", "Kd (apparent)": "nd", "detected": "0 of 3", "empty controls": "0 of 9"}
{"CDR-L1": "KSSQSVLYESRNKNSVA", "CDR-L2": "WASTRES", "CDR-L3": "QQYHRRTLS", "Kd (apparent)": "nd", "detected": "0 of 3", "empty controls": "0 of 9"}

Values reported by Engelhart et al. 2022, doi:10.1038/s41597-022-01779-4 (FLAb copy).